Data reported in patent US12559509B1, “Citrate coordination complex of an orally-delivered beta-lactamase inhibitor and uses thereof” (priority 2023, dated 2026).

Test: Chemical stability of drug substance controls and binary blend, HPLC purity
Assay type: physicochemical
Conditions: in binary Blend, 40° C. Storage, 5 weeks
Description: Chemical stability of the binary blend was confirmed by monitoring HPLC purity (% peak area) of each drug substance and a binary blend that were put on stability at 25° C. and 40° C.

Nc1nc(/C(=C/CC(=O)O)C(=O)N[C@@H]2C(=O)N3C(C(=O)O)=CCS[C@H]23)cs1 [Ceftibuten dihydrate, reference compound]
HPLC purity (% peak area): 98.2%
